Patent US7807162B2, “Single domain VHH antibodies against von Willebrand factor” (Ablynx N.V., priority 2005, dated 2010)
Numbering of substitutions follows the chain as printed.

B1: 12B6H2-3a-12B6H2 (protein)
VHH: EVQLVESGGGLVQPGGSLRLSCAASGRTFSYNPMGWFRQAPGKGREVVAAISRTGGSTYYARSVEGRFTISRDNAKRMVYLQMNSLRAEDTAVYYCAAAGVRAEDGRVRTLPSEYNFWGQGTQVTVSSAAAEVQLVESGGGLVQPGGSLRLSCAASGRTFSYNPMGWFRQAPGKGREVVAAISRTGGSTYYARSVEGRFTISRDNAKRMVYLQMNSLRAEDTAVYYCAAAGVRAEDGRVRTLPSEYNFWGQGTQVTVSS
B2: 12A2H1-3a-12A2H1 (protein)
VHH: B1 VHH with V47L, A61P, R62D, N116T, V178L, A192P, R193D, N247T
B3: 12A2H4-3a-12A2H4 (protein)
chain: B1 VHH with V47L, A61P, R62D, M78S, N116T, V178L, A192P, R193D, M209S, N247T
B4: 12A5H1: humanised 12A5 nanobody, SEQ ID NO: 95 (protein)
VHH: EVQLVESGGGLVQPGGSLRLSCAASGRIFSIGAMGMYRQAPGKGRELVATITSGGSTNYADPVKGRFTISRDGPKNTVYLQMNSLRAEDTAVYYCYANLKQGSYGYRFNDYWGQGTQVTVSS
B5: 12A5H2: humanised 12A5 nanobody, SEQ ID NO: 96 (protein)
VHH: B4 VHH with P74A
B6: 12A5H3: humanised 12A5 nanobody, SEQ ID NO: 97 (protein)
VHH: B4 VHH with G73N, P74A
B7: 12A2H13: humanised 12A2 nanobody, SEQ ID NO: 94 (protein)
VHH: EVQLVESGGGLVQPGGSLRLSCAASGFTFSYNPMGWFRQAPGKGRELVAAISRTGGSTYYPDSVEGRFTISRDNAKNSVYLQMNSLRAEDTAVYYCAAAGVRAEDGRVRTLPSEYTFWGQGTLVTVSS
B8: 12A2H3: humanised 12A2 nanobody, SEQ ID NO: 91 (protein)
VHH: B7 VHH with F27R, S78M, L123Q

Assay: Stability at elevated temperatures: concentration of supernatant (OD280) after heating
Assay type: physicochemical
[1] = 37° C., percentage of the concentration at room temperature, Table 30
[2] = 50° C., percentage of the concentration at room temperature, Table 30
[3] = 60° C., percentage of the concentration at room temperature, Table 30
[4] = 70° C., percentage of the concentration at room temperature, Table 30
[5] = 80° C., percentage of the concentration at room temperature, Table 30
[6] = 90° C., percentage of the concentration at room temperature, Table 30
[7] = RT, OD280 nm concentration of supernatant as percentage of the concentration at room temperature, Table 30

Molecule | Concentration after heating at increasing temperatures (37° C., Tags: No, Table 40) | Concentration after heating at increasing temperatures (37° C., Tags: Yes, Table 40) | Concentration after heating at increasing temperatures (50° C., Tags: No, Table 40) | Concentration after heating at increasing temperatures (50° C., Tags: Yes, Table 40) | Concentration after heating at increasing temperatures (60° C., Tags: No, Table 40) | Concentration after heating at increasing temperatures (60° C., Tags: Yes, Table 40) | Concentration after heating at increasing temperatures (70° C., Tags: No, Table 40) | Concentration after heating at increasing temperatures (70° C., Tags: Yes, Table 40) | Concentration after heating at increasing temperatures (80° C., Tags: No, Table 40) | Concentration after heating at increasing temperatures (80° C., Tags: Yes, Table 40) | Concentration after heating at increasing temperatures (90° C., Tags: No, Table 40) | Concentration after heating at increasing temperatures (90° C., Tags: Yes, Table 40) | Concentration after heating at increasing temperatures (37° C., Table 36) | Concentration after heating at increasing temperatures (50° C., Table 36) | Concentration after heating at increasing temperatures (60° C., Table 36) | Concentration after heating at increasing temperatures (70° C., Table 36) | Concentration after heating at increasing temperatures (80° C., Table 36) | Concentration after heating at increasing temperatures (90° C., Table 36) | further results
B1 | 100 | 100 | 99 | 91 | 99 | 85 | 28 | 7 | 13 | 6 | 18 | 7 | – | – | – | – | – | – | –
B2 | 100 | 98 | 99 | 96 | 100 | 93 | 77 | 63 | 14 | 8 | 15 | 9 | – | – | – | – | – | – | –
B3 | 98 | 100 | 98 | 99 | 98 | 95 | 18 | 9 | 17 | 6 | 26 | 9 | – | – | – | – | – | – | –
B4 | – | – | – | – | – | – | – | – | – | – | – | – | 99 | 91 | 86 | 60 | 69 | 63 | –
B5 | – | – | – | – | – | – | – | – | – | – | – | – | 99 | 108 | 90 | 58 | 67 | 60 | –
B6 | – | – | – | – | – | – | – | – | – | – | – | – | 101 | 97 | 97 | 67 | 73 | 64 | –
B7 | – | – | – | – | – | – | – | – | – | – | – | – | – | – | – | – | – | – | Concentration after heating at increasing temperatures [1]: 104%; Concentration after heating at increasing temperatures [2]: 103%; Concentration after heating at increasing temperatures [3]: 103%; Concentration after heating at increasing temperatures [4]: 100%; Concentration after heating at increasing temperatures [5]: 90%; Concentration after heating at increasing temperatures [6]: 81%; Concentration after heating at increasing temperatures [7]: 100%
B8 | – | – | – | – | – | – | – | – | – | – | – | – | – | – | – | – | – | – | Concentration after heating at increasing temperatures [1]: 102%; Concentration after heating at increasing temperatures [2]: 101%; Concentration after heating at increasing temperatures [3]: 102%; Concentration after heating at increasing temperatures [4]: 102%; Concentration after heating at increasing temperatures [5]: 90%; Concentration after heating at increasing temperatures [6]: 89%; Concentration after heating at increasing temperatures [7]: 100%
